From paper PMC3052287 (Psychopharmacology, 2010)

The chains behind the UniProt entries cited, without tags or fusion partners.
UniProt P34969, whole entry: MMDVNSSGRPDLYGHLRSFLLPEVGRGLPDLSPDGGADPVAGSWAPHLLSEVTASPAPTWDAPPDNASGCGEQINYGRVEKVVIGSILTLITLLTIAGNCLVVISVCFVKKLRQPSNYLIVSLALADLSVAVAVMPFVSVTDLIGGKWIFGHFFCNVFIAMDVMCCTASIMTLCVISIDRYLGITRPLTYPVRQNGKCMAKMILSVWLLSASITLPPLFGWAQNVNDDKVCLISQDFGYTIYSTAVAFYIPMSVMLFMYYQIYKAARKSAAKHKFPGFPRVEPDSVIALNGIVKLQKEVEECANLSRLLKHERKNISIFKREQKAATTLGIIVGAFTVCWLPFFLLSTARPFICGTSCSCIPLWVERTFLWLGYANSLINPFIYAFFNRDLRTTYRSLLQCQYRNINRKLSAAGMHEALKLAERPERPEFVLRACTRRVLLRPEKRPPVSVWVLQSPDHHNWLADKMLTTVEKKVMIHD

How the values were obtained:
h5-HT7 receptor [1] = molecular target: T1, h5-HT7 receptor (Homo sapiens, UniProt P34969); details: intact cells, 1 μM risperidone or buffer then wash; 2 nM [3H]5-HT; two-way ANOVA, p<0.05
h5-HT7 receptor [2] = molecular target: T1, h5-HT7 receptor; details: 10 nM risperidone pre-treatment, wash, 1 μM drug 90 min, 10 μM 5-HT

difference in affinity between control and risperidone-treated cells (h5-HT7 receptor [1]) | reactivation of risperidone-inactivated h5-HT7 receptors (h5-HT7 receptor [2]) | Compound
significant differences | reactivation of the receptor | CC1CCN(CC[C@H]2CCCN2S(=O)(=O)c2cccc(O)c2)CC1 [SB269970]
significant differences | reactivation of the receptor | CN1CCN2c3ccccc3Cc3ccccc3C2C1 (stereo not shown) [mianserin]
